The values that follow come from article PMC8292404, “Phase 1b/2 trial of tepotinib in sorafenib pretreated advanced hepatocellular carcinoma with MET overexpression” (British Journal of Cancer, 2021).

In the data set the test system is patients with sorafenib pretreated advanced hepatocellular carcinoma (aHCC). The data set is described as follows: Phase 1b dose escalation ('3 + 3'): DLTs and adverse events. Conditions: N = 17. Format: in vivo. Here is the method:
Additional patients were enrolled at the RP2D.
The primary endpoint in Phase 1b was incidence of dose-limiting toxicities (DLTs) during Cycle 1. Details of DLTs are defined in Supplementary Table 3. Pharmacokinetics (PK) endpoints, including Cmax, and area under the concentration–time curve over the dosing interval at steady state (AUCτ,ss), were evaluated at Cycle 1, Day 15 as a secondary endpoint in Phase 1b. Selected efficacy measures were evaluated as secondary endpoints in Phase 1b.
In Phase 1b, DLTs were assessed during Cycle 1 in all patients who received ≥80% of the planned cumulative dose of tepotinib and patients who stopped treatment due to a DLT. Patients who were replaced during Cycle 1 were excluded from the analysis set.

`CN1CCC(COc2cnc(-c3cccc(Cn4nc(-c5cccc(C#N)c5)ccc4=O)c3)nc2)CC1` [tepotinib]: the “patients with an AE of any cause” value is reported as 94.1%.
